Measured values reported in ChEMBL document CHEMBL1155879, “Identification and validation of human DNA ligase inhibitors using computer-aided drug design” (J Med Chem, 2008).
Activity calls are given as the source filed them. No cut-off for these calls is given here.

System: DNA
Assay: Inhibition of ethidium bromide binding to DNA at 100 uM

With O=C1Nc2c(C(=O)O)cccc2C1=O the Activity was “inactive”.
